From PubChem BioAssay AID493221 (Johns Hopkins Ion Channel Center, 2011)
The list shows a part of the results, in another mix than the full data. Calls of active or inactive are those of the source.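 How the source made its calls: active means choline transporter activity left, mean of duplicates at 10 µM, below buffer-only control mean minus 3 SD; inactive means the rest.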

Amino acid sequences for entries named in this document (tags omitted). A change or cut given only in a name is not applied to a line headed by its entry.
UniProt Q9GZV3: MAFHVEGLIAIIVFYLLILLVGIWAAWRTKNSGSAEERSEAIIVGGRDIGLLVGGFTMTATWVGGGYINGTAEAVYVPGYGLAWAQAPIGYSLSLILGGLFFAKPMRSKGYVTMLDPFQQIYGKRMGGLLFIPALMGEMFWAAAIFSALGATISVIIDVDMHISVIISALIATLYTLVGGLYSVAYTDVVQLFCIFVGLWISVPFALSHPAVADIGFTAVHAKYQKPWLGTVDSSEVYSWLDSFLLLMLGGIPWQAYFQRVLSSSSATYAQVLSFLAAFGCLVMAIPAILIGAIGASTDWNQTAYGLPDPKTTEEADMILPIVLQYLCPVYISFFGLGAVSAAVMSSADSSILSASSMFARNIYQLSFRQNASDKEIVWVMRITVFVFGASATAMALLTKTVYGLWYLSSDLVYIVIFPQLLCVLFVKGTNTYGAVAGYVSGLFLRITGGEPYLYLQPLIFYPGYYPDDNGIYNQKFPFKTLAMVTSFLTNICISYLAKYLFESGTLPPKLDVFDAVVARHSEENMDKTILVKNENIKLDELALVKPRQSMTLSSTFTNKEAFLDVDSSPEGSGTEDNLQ

molecular target: High affinity choline transporter 1 (Homo sapiens) (UniProt Q9GZV3); test: CHT inhibitors, confirmation, cell-based, membrane potential dye, duplicate (AID 493221); conditions: CHT-expressing cells, at 10 µM, LV-to-AA substituted CHT, HEK293 cells

Compound	inhibition
CCc1nc2c(n1)c1c(non1O)c1c2no[n+]1[O-]	active: 28.1%
NC(=O)c1cc([N+](=O)[O-])cc([N+](=O)[O-])c1N	inactive: 0%
